# Assay outcomes: PubChem, National Center for Advancing Translational Sciences (NCATS)
# EPAC1 agonist: agonists of human EPAC1; EPAC1 agonist qHTS, biochemical assay; response scale: 100% = response to 6.5 mM cAMP; Potency, µM (titrated, usually from 154 µM), without a hit: at the top dose activation, hits mostly activators; 360,000 compounds, 0.073% hits; further: nearly all actives have a fitted effect of over 60% in size
#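 Fluorescent GDP-exchange assay: 100 nM EPAC1 with 250 nM Rap1B preloaded with BODIPY-GDP and 50 uM GDP; compounds tested as concentration series, 5 min at room temperature, then read every 5 min for 30 min (ex 480/em 540 nm); normalized to 6.5 mM cAMP.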
# Rango-impB inh: Rango-importin beta binding inhibition; Q14974; Rango CFP/YFP FRET sensor + importin beta, 45 min; Potency, µM (doses to about 92.2 µM), without a hit: top-dose inhibition of complex formation; 340,000 compounds, 0.031% hits; calls by dose curve;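 further: 0% = DMSO wells and 100% = buffer wells lacking importin beta; nearly all actives have a fitted effect of over 15% in size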
#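 FRET biosensor (snurportin 1 IBB flanked by EYFP and cerulean), 50 nM, with compound 5 min, then 0.125 microM importin beta in PBS, 1 mM DTT, 0.02% Tween-20, 0.1% BSA. CFP/YFP ratio read after 45 min at room temperature; pre-read flags interference.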
# EPAC1 antagonist: antagonists of human EPAC1; O95398; Potency, µM (doses to about 115 µM), for inactives: top-dose activity change, negative = inhibition, most hits filed as inhibitors; 360,000 compounds, 0.14% hits; EPAC1 GEF assay, Rap1b-BODIPY-GDP exchange fluorescence;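 further: plate controls were vehicle for no effect and positive control for full effect; nearly all actives have a fitted effect of over 50% in size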
# Rango dissoc inh: inhibitors of RanGTP-induced Rango-importin beta complex dissociation; O95149+P62826; Biochemical FRET Rango-importin beta, RanGTP-induced dissociation; Potency, µM (highest dose often 46.1 µM), for inactives: at the top dose activity change, negative = inhibition; 340,000 compounds, 0.071% hits; AID 540253; calls by dose curve; further: % of control where 0% means no effect; nearly all actives have a fitted effect of over 45% in size
#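 Quantitative HTS using a FRET biosensor: 0.1 uM Rango, 0.25 uM importin beta, 0.6 uM Ran, 2 mM GTP, 0.2 uM RCC1 final, PBS with DTT, Tween-20 and BSA. Post-read taken 45 min after Ran addition.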
# EPAC2 ag: agonists of human EPAC2 (RAPGEF4) | EPAC2 activation, biochemical qHTS; response scale: 100% = 6.5 mM cAMP response | Potency, µM (highest dose often 154 µM), without a hit: at the top dose activation, usual class: activators | 360,000 compounds, 0.079% hits; further: nearly all actives have a fitted effect of over 50% in size
#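 qHTS, titration series. 100 nM EPAC2 / 250 nM Rap1B-BODIPY-GDP / 50 uM GDP; RT; ex 480/em 540 nm, 5-min reads to 30 min. Norm. to 6.5 mM cAMP = activation.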
# EPAC2 antag: blocks human EPAC2 exchange factor; AID 720708; Potency, µM (doses to about 114 µM), without a hit: at the highest dose activity, negative = inhibition, most hits filed as inhibitors; EPAC2 GEF exchange of Rap1B-BODIPY-GDP, fluorescence; 360,000 compounds, 0.18% hits; further: on the % scale 0 is the no-effect control and ±100 the full control effect; nearly all actives have a fitted effect of over 45% in size
# * marks the source's active call; other numbers are inactive results; u = inconclusive; x = not tested or not shown. Shown are actives, neighbours in structure and some others; about 0.43% of the full set was active somewhere. Unless noted, the call rests on the fitted dose curve; in most records, active means well fitted curve in the direction sought with a large enough effect; inconclusive means small, poorly fitted or top-dose-only effect, or another doubt; inactive means no such curve, though single readings can be large; an effect the other way counts as inactive or inconclusive. Potency means the concentration at half of the fitted maximal effect.
# Key to letters – A = EPAC1 agonist; B = Rango-impB inh; C = EPAC1 antagonist; D = Rango dissoc inh; E = EPAC2 ag; F = EPAC2 antag
[1] Clc1cc(Cl)c(-c2cc(Cl)c(Cl)cc2Cl)cc1Cl
  A: 1%; B: -1%; C: -23%; D: 0%; E: 9%; F: 4µM*

[2] Oc1ccc(Cl)c(Cl)c1
  A: -14%; B: -2%; C: -10%; D: 8%; E: 3%; F: -9%

[3] CCC(C)c1ccc(N2C(=O)NC(=O)/C(=C/c3cccn3CCOc3ccc(C)cc3)C2=O)cc1 (configuration not stated)
  A: -23%; B: u; C: 45µM*; D: -6%; E: -31%; F: -2%

[4] COc1ccc(C2C3C=CC(C3)C2C(=O)O)cc1 (configuration not stated)
  A: -5%; B: x; C: 2%; D: x; E: 6%; F: 5%

[5] Cc1ccc2c(c1)N(C(=O)CCC(=O)N1CCC3(CC1)OCCO3)CC(C)O2 (configuration not stated)
  A: 5%; B: -3%; C: -9%; D: 25%; E: 13%; F: 5%

[6] COc1ccc(OC)c(N=Cc2c(O)n(Cc3ccccc3)c(=S)[nH]c2=O)c1
  A: 8%; B: u; C: 6%; D: u; E: u; F: 4%

[7] COc1ccc(N=Cc2c(O)n(Cc3ccccc3)c(=S)[nH]c2=O)c(OC)c1
  A: 11%; B: u; C: -9%; D: u; E: 100µM*; F: 1%

[8] COc1nc2ccccc2nc1N1CC1
  A: 5%; B: x; C: -9%; D: x; E: 1%; F: u

[9] C#CCOCCOCCOCCNc1nc(N2CCN(C(=O)CCCCCCCCCCNC(=O)[C@H]([C@@H](C)CC)n3cc(CCCCN=C(N)N)nn3)CC2)nc(N2CCN(C(=O)CCCCCCCCCCNC(=O)[C@H](CO)n3cc(CCCCCN)nn3)CC2)n1
  A: -12%; B: 73µM*; C: u; D: u; E: 4%; F: 10%

[10] CCOC(=O)c1cc(C)sc1/N=C/C1C(=O)NC(=S)NC1=O
  A: 0%; B: u; C: -2%; D: -24%; E: 11%; F: u

[11] CCOC(=O)c1c(/N=C/C2C(=O)NC(=S)NC2=O)sc2c1CCC2
  A: 9%; B: u; C: -17%; D: 9.2µM*; E: 5%; F: 5%

[12] Cc1c(C=O)c2ccccc2n1Cc1ccccc1
  A: 12%; B: -7%; C: -14%; D: 7%; E: 5%; F: 0%

[13] O=Cc1c(C(=O)O)n(Cc2ccc(Cl)cc2)c2ccccc12
  A: 45µM*; B: u; C: 71%; D: u; E: -57%; F: 104%

[14] O=C1C=C(N2CC2)c2ccccc2C1=O
  A: 14%; B: x; C: u; D: x; E: 15%; F: u

[15] Cc1cc(C=C2C(=O)NC(=S)NC2=O)c(C)n1-c1ccc2c(c1)OCO2
  A: -6%; B: 6%; C: 56µM*; D: 20%; E: -1%; F: -5%

# Structural class: the compounds so far containing an NH in an aromatic ring
# Key to letters – A = EPAC1 agonist; B = Rango-impB inh; C = EPAC1 antagonist; D = Rango dissoc inh; E = EPAC2 ag; F = EPAC2 antag
[6] COc1ccc(OC)c(N=Cc2c(O)n(Cc3ccccc3)c(=S)[nH]c2=O)c1
  A: 8%; B: u; C: 6%; D: u; E: u; F: 4%

[7] COc1ccc(N=Cc2c(O)n(Cc3ccccc3)c(=S)[nH]c2=O)c(OC)c1
  A: 11%; B: u; C: -9%; D: u; E: 100µM*; F: 1%

# More results follow.
# Key to letters – A = EPAC1 agonist; B = Rango-impB inh; C = EPAC1 antagonist; D = Rango dissoc inh; E = EPAC2 ag; F = EPAC2 antag
[16] Cc1cc(C=C2C(=O)NC(=O)NC2=O)c(C)n1-c1ccc2c(c1)OCO2
  A: -49%; B: u; C: -7%; D: -21%; E: -8%; F: 11%

[17] O=C(O)COc1ccc(Br)cc1C(c1c(C(=O)O)[nH]c2ccccc12)c1c(C(=O)O)[nH]c2ccccc12
  A: 2%; B: -6%; C: u; D: 5%; E: -3%; F: -5%

[18] O=c1cc(-c2ccc(O)c(O)c2)oc2cc(O)cc(O)c12
  A: -22%; B: u; C: 45µM*; D: u; E: 6%; F: 2%

[19] CN1C(C(=O)N2CCC3(CC2)OCCO3)=CC(c2ccc(F)cc2)=NS1(=O)=O
  A: 4%; B: 0%; C: -19%; D: 21%; E: -5%; F: 1%

[20] O=[N+]([O-])c1ccc(C2[C@H]3C(c4ccccc4)=NC4(CCCCC4)N23)cc1 (some centres not stated)
  A: -2%; B: 1%; C: -16%; D: -20%; E: 3%; F: -5%

[21] COC1C(OC(=O)c2ccc(C)[nH]2)C(O)C(Oc2ccc3c(O)c(NC(=O)c4ccc(O)c(CC=C(C)C)c4)c(=O)oc3c2Cl)OC1(C)C (configuration not stated)
  A: -11%; B: 3%; C: 40µM*; D: 9%; E: -2%; F: -15%

[22] Cc1ccccc1N1CCN(Cc2ccc3c(c2)OCO3)CC1
  A: -2%; B: 0%; C: -7%; D: -8%; E: 9%; F: 1%

[23] Cc1cc2oc(=O)cc(-c3cc4ccccc4o3)c2cc1OC(=O)N(C)C
  A: 8%; B: 6%; C: -3%; D: 0%; E: 9%; F: 1%
